According to patent US20140301947A1, “METHODS TO PREDICT BINDING AFFINITY OF TSPO IMAGING AGENTS TO TSPO” (IMPERIAL INNOVATIONS LIMITED, priority 2011, published 2014):
Like-named read-outs stand apart in the source and are kept apart here.

How the values were obtained:
TSPO [1] = biological target: T1, TSPO (Homo sapiens, UniProt P30536); test: Competition binding with [3H]PK11195 in human brain (method of J Nucl Med 2011;52:24-32); parameters: Ki MAB; Vinpocetine Ki, MAB; details: read-out: Ki MAB; mixed affinity binders, single value, human brain
Excerpt: (§1) Thus, for example, the binding affinity of the compound may be determined in tissue derived from a HAB and in tissue derived from a LAB. An appropriate method may comprise the following steps: • obtain samples from human volunteers of tissue which contains TSPO (for example brain (for example for archive samples) or platelets (for example from blood)).
(§2) In more detail, as an example, a 48 well plate may be used, for example with 8-12 different concentrations of experimental drug for each experiment (be it the radiolabelled drug for saturation studies or the un-radiolabelled drug for competition studies). Concentrations may range from around 0.1 nM, increasing in roughly half logs (ie 0.1 nM, 0.3 nM, 1 nM, 3 nM etc) up to around 10,000 nM. 3-4 wells may be used for each concentration and the average taken to increase the precision around the estimate for each data point. The amount of tissue material required depends on how much TSPO is in the chosen tissue. For brain ˜100 micrograms of protein in each well (500 microlitres) may typically be used, giving a protein concentration of ˜200 micrograms/ml. Similar amounts may be used for platelets. For a tissue with very high TSPO levels (eg adrenal gland) a lot less protein would be needed.

TSPO [2] = biological target: T1, TSPO; details: used to generate Ki; read-out: Kd for [3H]PK11195; cited from earlier work
TSPO [3] = biological target: T1, TSPO; test: Competition binding with [3H]PK11195 in human brain (method of J Nucl Med 2011;52:24-32); parameters: from tissue; host or cells: human brain (membrane preparation, by the cited method)
Excerpt: as §1, §2

TSPO [4] = biological target: TSPO (Homo sapiens, UniProt P30536, T147A); test: as above; parameters: from tissue; host or cells: human brain (membrane preparation, by the cited method); details: Ki HAB, high affinity binders, human brain; nM
Excerpt: as §1, §2

TSPO [5] = test: as above
Excerpt: as §1, §2

CCC(C)N(C)C(=O)c1cc2ccccc2c(-c2ccccc2Cl)n1 (stereo not drawn) [PK11195, 1-(2-Chlorophenyl)-N-methyl-N-(1-methylpropyl)-3-isoquinolinecarboxamide]
Ki (TSPO [1]): 0.0236 ± 0.0055 µM | Kd (TSPO [2]): 0.0292 µM | Ki (TSPO [3]; Ki LAB, low affinity binders, human brain): 0.0223 ± 0.0022 µM | Ki (TSPO [3]; affinity for the "Low Affinity receptor", grouping of ligands into 3 distinct affinities): < 0.031 µM | Ki (TSPO [4]): 28.3 ± 4 nM | LAB/HAB (TSPO [5]): 0.8 | ratio of specific signal, HAB (TSPO [5]): 0.8 | ratio of specific signal, LAB (TSPO [5]): 1 | ratio of specific signal, MAB (TSPO [5]): 0.9
